Test results: patent publication US20230233696A1, “TRIANTENNARY N-ACETYLGALACTOSAMINE MODIFIED HYDROXYL POLYAMIDOAMINE DENDRIMERS AND METHODS OF USE THEREOF” (Ashvattha Therapeutics, Inc., priority 2019, published 2023)
Like-named read-outs stand apart in the source and are kept apart here.

Assays:
[1] = in vitro drug release under plasma (pH7.4, PBS) and intracellular conditions (pH5.5, esterase); type: in vitro ADME; conditions: plasma physiological conditions (pH7.4, PBS), 18 days
Description: The drug release profile of both the conjugates was evaluated under plasma (pH7.4, PBS) and intracellular conditions (pH5.5, esterase).

[2] = human plasma, 37° C., 2 days
[3] = mouse plasma, 37° C., 2 days
[4] = rat plasma, 37° C., 2 days

dendrimer-GalNAc (4-5)-telmisartan amide (6-7) [D-Tel]
drug release [1]: less than 2%
drug released [2]: 3%
drug released [3]: 3%
drug released [4]: 3%

dendrimer-triantennary GalNAc(4-5)-telmisartan (7-8) [D-TelB]
drug release [1]: 14%
